Test results published in EP0303391B1, “Optical isomers of a spiroquinuclidine derivative” (State of Israel Represented by the Prime Minister's Office …, priority 1987, dated 1989).

Assays:
[1] = target: muscarinic receptors; format: binding; conditions: rat forebrain homogenates, mean ± spread (n), Ki = IC50 ÷ (1 + C/KD), read-out: Ki(^3H-QNB)
[2] = target: muscarinic receptors; assay: Displacement of 3H-cis-dioxolane (3H-CD) from rat forebrain homogenates; format: binding; conditions: mean ± spread (n), Ki = IC50 ÷ (1 + C/KD)

What does the source list for `CC1OC2(CS1)CN1CCC2CC1` (racemic) [(±)-cis-isomer, (±)-cis-2-methylspiro(1,3-oxathiolan-5,3')quinuclidine]?
Ki ([1]; listed as 4): 6.3 ± 1 µM; Ki ([2]; listed as 4): 0.45 ± 0.18 µM

With `CC1OC2(CS1)CN1CCC2CC1` (racemic) [(±)-trans-isomer, (±)-trans-2-methylspiro(1,3-oxathiolan-5,3')quinuclidine] as the compound, how does the Ki ([1]; listed as 3) read?
Its Ki is 24.7 ± 2.3 µM.

What about the Ki ([2]; listed as 3) of the same compound?
The Ki was 1.8 ± 0.1 µM.

What does the source list for `CC1OC2(CS1)CN1CCC2CC1` (single isomer, unassigned; (+)) [(+)-cis-isomer, (+)-cis-2-methylspiro(1,3-oxathiolan-5,3')quinuclidine]?
Ki ([1]; listed as 6): 36.4 ± 8 µM; Ki ([2]; listed as 6): 7.5 µM

What does the source list for `CC1OC2(CS1)CN1CCC2CC1` (single isomer, unassigned; (-)) [(-)-cis-isomer, (-)-cis-2-methylspiro(1,3-oxathiolan-5,3')quinuclidine]?
Ki ([1]; listed as 5): 3.5 ± 1.5 µM; Ki ([2]; listed as 5): 0.21 ± 0.06 µM

Like-named read-outs stand apart in the source and are kept apart here.
